The values that follow are results of earlier work, collected in paper PMC8583936, “Machine Learning Assisted Approach for Finding Novel High Activity Agonists of Human Ectopic Olfactory Receptors” (International Journal of Molecular Sciences, 2021).

In this data set the target is T1, OR1A1 (Homo sapiens, UniProt Q9P1Q5).
T1 sequence (Q9P1Q5 1-309): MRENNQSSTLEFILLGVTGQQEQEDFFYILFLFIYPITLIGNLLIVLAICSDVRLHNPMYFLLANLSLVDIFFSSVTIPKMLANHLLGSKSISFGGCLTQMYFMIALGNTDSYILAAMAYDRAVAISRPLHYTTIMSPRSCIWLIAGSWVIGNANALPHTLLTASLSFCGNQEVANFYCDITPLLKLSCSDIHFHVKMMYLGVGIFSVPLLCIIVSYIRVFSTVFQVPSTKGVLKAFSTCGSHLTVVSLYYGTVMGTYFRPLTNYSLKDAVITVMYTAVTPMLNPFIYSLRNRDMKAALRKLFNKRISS
The conditions noted are these: cited from earlier work.

Take `CC(=O)/C=C/C1C(C)=CCCC1(C)C` (stereo not drawn) [Α-ionone]: the “Class (agonist / non-agonist / conflicting info.) for OR1A1” value is listed as “Non-agonist”.
